The experiment addresses human 5-HT6 receptor (Homo sapiens, UniProt P50406). Briefly: Human 5-HT6 Receptor Binding Assay ([3H]LSD displacement, scintillation beads). The conditions noted are these: read-out: h5-HT6 (Ki); membranes of CHO-K1 cells with recombinant human 5-HT6, 4 nM [3H]LSD; Table 1, class symbols; tested form: HCl.

Amino acid sequences for entries named in this document (tags omitted).
UniProt P50406, whole entry: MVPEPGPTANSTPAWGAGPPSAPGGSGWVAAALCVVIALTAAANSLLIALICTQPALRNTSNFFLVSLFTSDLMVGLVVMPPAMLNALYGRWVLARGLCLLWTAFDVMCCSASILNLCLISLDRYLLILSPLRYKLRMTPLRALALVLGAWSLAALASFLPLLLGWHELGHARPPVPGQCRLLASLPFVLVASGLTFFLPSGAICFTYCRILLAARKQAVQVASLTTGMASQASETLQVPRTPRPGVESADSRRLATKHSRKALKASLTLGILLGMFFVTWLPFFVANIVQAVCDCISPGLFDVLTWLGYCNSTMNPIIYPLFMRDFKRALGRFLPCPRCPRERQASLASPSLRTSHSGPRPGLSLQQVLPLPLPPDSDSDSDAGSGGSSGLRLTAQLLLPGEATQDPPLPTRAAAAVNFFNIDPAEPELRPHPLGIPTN

For orientation: Ki means a dissociation constant, usually derived from enzyme kinetics or from competition with a known ligand.

Turning to `O=S(=O)(c1cccc(C(F)(F)F)c1)c1ccc2c3c([nH]c2c1)C1(CCCOC1)NCC3` (single isomer, unassigned), the Ki is less than 500 nM.
As to `O=S(=O)(c1ccccc1)c1ccc2c3c([nH]c2c1)C1(CCCOC1)NCC3` (single isomer, unassigned), the Ki was less than 500 nM.

Values taken from patent US8765779B2, “Tricyclic derivatives and their pharmaceutical use and compositions” (Cephalon, Inc., priority 2009, dated 2014).
